Assay results reported in publication PMC3372685 (Biochemical Pharmacology, 2012).

Columns and labels:
zebrafish α2β2 nAChR [1] = molecular target: T1, zebrafish α2β2 nAChR (Danio rerio, UniProt A0ACM8Q9T8+E7F4S7); experiment: cell-based
zebrafish α3β4 nAChR = zebrafish α3β4 nAChR (Danio rerio, UniProt A0A0R4ISQ3+A0A8M1QHJ5); experiment: Inhibition of ACh-evoked responses by co-applied mecamylamine in Xenopus oocytes; format: cell-based; conditions: α3β4, peak current IC50 / net charge IC50
[2] = molecular target: zebrafish muscle α1β1bεδ nAChR (Danio rerio, UniProt A2BG85+G1FMP8+Q75XT1+Q98880); conditions: peak current IC50 / net charge IC50
zebrafish α4β2 nAChR = zebrafish α4β2 nAChR (Danio rerio, UniProt E7F4S7+Q0PJT8); conditions: α4β2, peak current IC50 / net charge IC50
zebrafish α2β2 nAChR [3] = molecular target: T1, zebrafish α2β2 nAChR; conditions: α2β2, peak current IC50 / net charge IC50
zebrafish α7 nAChR = zebrafish α7 nAChR (Danio rerio, UniProt Q800C7); conditions: α7, peak current IC50 / net charge IC50
zebrafish α2β2 nAChR [4] = molecular target: T1, zebrafish α2β2 nAChR

Row | Structure (SMILES) | EC50 (zebrafish α2β2 nAChR [1]) [µM] | Ratio (zebrafish α3β4 nAChR) | Ratio [2] | Ratio (zebrafish α4β2 nAChR) | Ratio (zebrafish α2β2 nAChR [3]) | Ratio (zebrafish α7 nAChR) | Agonist type compared to ACh (zebrafish α2β2 nAChR [4]) | Emax (zebrafish α2β2 nAChR [1]; read-out: Imax) [%]
1 | CC(=O)OCC[N+](C)(C)C [ACh, acetylcholine] | 40 ± 8 | – | – | – | – | – | – | –
2 | CNC1(C)C2CCC(C2)C1(C)C (stereo not drawn) [mecamylamine] | – | 12 | 3.0 | 22 | 0.9 | 2.1 | – | –
3 | CN1CCC[C@H]1c1cccnc1 [nicotine] | 6 ± 1 | – | – | – | – | – | partial agonist | 30 ± 5
